For test [1], the target named is T1, Vascular endothelial growth factor receptor 1 (Homo sapiens, UniProt P17948). As to the kind of experiment: Inhibition of VEGFR1 (unknown origin) at 1 uM by Z'-Lyte kinase assay relative to control.
The target in test [2] is T2, Vascular endothelial growth factor receptor 3 (Homo sapiens, UniProt P35916). The test is described as follows: Inhibition of VEGFR3 (unknown origin) at 1 uM by Z'-Lyte kinase assay relative to control.
Test [3] has as its target Serine/threonine-protein kinase 16 (Homo sapiens, UniProt O75716). As to the kind of experiment: Inhibition of MPSK1 (unknown origin) at 1 uM by Z'-Lyte kinase assay relative to control.
Test [4] concerns the target Mitogen-activated protein kinase kinase kinase 11 (Homo sapiens, UniProt Q16584). The test is described as follows: Inhibition of MLK3 (unknown origin) at 1 uM by Z'-Lyte kinase assay relative to control.
The target of test [5] is T3, Serine/threonine-protein kinase TAO2 (Homo sapiens) (UniProt Q9UL54).
T3 sequence (whole entry): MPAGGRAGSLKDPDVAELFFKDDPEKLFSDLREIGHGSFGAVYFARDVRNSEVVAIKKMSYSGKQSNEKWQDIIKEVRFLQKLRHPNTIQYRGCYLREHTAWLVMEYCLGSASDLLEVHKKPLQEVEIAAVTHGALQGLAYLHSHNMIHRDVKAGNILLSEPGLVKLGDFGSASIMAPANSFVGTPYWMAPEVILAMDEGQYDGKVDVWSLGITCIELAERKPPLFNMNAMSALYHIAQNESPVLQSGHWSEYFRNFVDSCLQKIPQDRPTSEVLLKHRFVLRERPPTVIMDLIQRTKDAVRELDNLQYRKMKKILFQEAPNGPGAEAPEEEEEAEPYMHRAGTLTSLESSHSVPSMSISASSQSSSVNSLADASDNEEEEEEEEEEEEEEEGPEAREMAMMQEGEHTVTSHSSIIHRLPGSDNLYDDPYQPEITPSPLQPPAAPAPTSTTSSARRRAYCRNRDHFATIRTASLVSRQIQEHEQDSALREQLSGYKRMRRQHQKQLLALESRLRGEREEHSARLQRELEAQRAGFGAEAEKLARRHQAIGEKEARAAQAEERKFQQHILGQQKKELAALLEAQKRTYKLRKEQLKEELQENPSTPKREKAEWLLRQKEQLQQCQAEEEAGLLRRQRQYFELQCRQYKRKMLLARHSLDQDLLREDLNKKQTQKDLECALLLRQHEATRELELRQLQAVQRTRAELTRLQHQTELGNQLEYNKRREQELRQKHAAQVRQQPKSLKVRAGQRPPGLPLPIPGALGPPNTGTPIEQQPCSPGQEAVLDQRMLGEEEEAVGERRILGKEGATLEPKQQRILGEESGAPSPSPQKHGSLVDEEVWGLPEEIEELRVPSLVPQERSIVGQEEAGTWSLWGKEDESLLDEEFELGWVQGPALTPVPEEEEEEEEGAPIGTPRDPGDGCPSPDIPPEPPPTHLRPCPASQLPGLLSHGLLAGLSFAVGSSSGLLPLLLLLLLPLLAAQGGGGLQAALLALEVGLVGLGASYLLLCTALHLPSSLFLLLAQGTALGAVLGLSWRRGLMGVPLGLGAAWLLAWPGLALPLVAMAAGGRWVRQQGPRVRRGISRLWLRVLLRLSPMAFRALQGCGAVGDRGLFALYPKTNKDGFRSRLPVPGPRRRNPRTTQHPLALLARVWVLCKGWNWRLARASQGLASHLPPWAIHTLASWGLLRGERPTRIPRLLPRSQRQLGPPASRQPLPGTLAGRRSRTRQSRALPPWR
As to the kind of experiment: Inhibition of TAO2 (unknown origin) at 1 uM by Z'-Lyte kinase assay relative to control.

By UniProt entry, the sequences of proteins in these tests, tags left out. Where a name states a change or a piece, a line headed by the entry shows the natural chain unless it says otherwise.
UniProt P17948, whole entry: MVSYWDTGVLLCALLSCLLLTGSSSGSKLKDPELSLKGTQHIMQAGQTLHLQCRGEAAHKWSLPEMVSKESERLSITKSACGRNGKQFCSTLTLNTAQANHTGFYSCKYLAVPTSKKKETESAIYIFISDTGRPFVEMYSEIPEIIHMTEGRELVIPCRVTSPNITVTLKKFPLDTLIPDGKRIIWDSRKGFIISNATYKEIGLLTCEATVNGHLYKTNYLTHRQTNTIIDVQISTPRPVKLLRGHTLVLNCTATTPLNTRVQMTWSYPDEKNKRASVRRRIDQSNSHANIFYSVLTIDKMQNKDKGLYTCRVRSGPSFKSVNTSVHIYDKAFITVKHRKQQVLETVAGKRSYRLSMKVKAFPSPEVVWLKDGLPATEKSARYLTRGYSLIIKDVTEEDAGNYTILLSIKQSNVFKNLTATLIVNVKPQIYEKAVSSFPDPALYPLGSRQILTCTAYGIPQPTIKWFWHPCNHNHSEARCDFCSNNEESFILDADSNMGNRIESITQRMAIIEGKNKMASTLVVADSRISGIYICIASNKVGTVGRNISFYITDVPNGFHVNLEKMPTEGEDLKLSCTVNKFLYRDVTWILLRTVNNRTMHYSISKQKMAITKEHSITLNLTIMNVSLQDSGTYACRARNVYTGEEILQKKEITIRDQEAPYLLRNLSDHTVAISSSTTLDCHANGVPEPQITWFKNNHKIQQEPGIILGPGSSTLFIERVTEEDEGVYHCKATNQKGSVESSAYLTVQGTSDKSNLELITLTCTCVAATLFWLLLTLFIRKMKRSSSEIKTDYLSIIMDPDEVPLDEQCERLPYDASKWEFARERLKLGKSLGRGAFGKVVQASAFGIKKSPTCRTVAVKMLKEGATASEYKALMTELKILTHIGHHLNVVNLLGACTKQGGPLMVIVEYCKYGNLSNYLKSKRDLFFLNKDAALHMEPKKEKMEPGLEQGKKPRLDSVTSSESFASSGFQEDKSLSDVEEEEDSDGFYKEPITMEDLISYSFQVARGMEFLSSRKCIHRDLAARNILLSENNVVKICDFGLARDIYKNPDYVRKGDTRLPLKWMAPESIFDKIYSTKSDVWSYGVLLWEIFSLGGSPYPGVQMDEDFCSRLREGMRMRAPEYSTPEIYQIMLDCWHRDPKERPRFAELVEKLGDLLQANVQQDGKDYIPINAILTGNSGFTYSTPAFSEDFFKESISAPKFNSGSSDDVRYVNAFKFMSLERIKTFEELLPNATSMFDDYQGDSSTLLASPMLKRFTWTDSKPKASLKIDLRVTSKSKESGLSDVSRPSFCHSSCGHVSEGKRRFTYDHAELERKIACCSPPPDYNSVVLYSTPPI
UniProt P35916, whole entry: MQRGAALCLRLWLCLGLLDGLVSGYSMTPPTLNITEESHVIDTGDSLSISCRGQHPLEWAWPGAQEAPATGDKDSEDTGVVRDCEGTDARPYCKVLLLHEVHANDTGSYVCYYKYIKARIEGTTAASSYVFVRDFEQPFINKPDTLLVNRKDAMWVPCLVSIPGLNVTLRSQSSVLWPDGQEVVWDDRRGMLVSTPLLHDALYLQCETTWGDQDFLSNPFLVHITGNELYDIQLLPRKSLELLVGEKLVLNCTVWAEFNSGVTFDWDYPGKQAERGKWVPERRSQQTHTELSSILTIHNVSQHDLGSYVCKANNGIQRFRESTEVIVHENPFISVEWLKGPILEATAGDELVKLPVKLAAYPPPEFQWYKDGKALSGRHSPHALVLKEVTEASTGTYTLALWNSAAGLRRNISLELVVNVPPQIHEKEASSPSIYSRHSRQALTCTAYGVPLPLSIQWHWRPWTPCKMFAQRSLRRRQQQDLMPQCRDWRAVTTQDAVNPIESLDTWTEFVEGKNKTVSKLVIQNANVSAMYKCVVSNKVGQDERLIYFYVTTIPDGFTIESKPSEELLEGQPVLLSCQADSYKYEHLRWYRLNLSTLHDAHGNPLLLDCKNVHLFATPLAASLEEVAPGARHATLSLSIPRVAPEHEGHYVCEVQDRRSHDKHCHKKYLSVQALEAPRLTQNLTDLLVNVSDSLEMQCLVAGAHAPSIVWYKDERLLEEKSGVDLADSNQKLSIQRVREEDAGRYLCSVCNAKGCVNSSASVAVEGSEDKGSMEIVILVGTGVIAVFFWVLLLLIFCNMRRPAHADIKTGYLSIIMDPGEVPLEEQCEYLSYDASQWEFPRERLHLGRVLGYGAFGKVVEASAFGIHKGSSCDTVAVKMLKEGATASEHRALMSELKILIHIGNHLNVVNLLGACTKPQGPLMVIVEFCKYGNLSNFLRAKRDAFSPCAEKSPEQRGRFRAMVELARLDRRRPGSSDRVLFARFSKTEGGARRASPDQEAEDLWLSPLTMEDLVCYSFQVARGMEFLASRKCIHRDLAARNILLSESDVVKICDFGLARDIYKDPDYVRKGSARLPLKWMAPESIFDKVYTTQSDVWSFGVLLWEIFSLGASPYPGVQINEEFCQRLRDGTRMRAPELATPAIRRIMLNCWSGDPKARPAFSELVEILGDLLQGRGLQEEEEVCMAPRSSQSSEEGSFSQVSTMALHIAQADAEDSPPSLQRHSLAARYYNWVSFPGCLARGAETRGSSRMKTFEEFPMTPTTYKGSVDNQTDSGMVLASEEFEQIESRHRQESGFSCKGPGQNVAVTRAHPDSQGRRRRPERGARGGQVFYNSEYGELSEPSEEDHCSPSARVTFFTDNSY
UniProt O75716, whole entry: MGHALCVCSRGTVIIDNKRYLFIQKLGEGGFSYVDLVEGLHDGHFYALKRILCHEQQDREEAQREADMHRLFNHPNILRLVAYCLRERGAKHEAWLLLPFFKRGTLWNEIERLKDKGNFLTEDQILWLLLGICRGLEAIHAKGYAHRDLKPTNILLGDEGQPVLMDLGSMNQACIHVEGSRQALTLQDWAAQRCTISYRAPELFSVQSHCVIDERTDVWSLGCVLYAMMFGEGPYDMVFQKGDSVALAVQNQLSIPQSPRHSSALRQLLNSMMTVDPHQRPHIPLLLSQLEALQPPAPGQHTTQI
UniProt Q16584: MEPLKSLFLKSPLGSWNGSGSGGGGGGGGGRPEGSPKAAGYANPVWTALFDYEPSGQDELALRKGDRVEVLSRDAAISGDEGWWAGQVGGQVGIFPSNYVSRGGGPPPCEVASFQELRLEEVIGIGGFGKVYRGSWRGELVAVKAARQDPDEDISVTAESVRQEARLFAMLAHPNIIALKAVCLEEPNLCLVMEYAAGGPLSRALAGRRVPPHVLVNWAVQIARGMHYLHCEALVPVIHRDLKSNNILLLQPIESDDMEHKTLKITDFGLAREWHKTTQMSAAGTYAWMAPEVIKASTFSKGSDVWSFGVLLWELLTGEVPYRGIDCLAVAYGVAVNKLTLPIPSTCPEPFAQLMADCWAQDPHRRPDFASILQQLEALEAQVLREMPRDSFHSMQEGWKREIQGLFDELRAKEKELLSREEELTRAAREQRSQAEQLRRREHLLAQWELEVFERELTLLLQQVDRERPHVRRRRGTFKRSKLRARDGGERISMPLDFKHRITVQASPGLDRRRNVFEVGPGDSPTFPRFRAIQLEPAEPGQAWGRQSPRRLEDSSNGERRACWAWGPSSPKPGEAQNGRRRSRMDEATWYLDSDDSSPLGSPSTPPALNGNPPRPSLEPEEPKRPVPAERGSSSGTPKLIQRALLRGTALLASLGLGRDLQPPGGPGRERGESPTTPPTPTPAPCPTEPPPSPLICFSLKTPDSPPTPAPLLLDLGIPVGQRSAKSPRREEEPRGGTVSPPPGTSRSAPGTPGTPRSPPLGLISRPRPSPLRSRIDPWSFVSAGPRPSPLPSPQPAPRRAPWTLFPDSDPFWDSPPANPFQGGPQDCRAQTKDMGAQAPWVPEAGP

The target in test [6] is T1, Vascular endothelial growth factor receptor 1. As to the kind of experiment: Inhibition of VEGFR1 phosphorylation at tyr1333 residue in human MDA-MB-231 cells at 8 uM incubated for 2 days by Western blot analysis. Type of test: cell-based. The note with it: time 2.0 day. Background: Immunoblotting shows a protein as a band on a membrane.
For test [7], the target named is T2, Vascular endothelial growth factor receptor 3. The test is described as follows: Inhibition of VEGFR3 phosphorylation at tyr1230 residue in human MDA-MB-231 cells at 8 uM incubated for 2 days by Western blot analysis. Type of test: cell-based. As to conditions: time 2.0 day.
In test [8] the target is T1, Vascular endothelial growth factor receptor 1. The test is described as follows: Inhibition of VEGFR1 phosphorylation at tyr1333 residue in human MCF7 cells at 8 uM incubated for 2 days by Western blot analysis. Type of test: cell-based. As to conditions: time 2.0 day.
In test [9] the target is T2, Vascular endothelial growth factor receptor 3. The test is described as follows: Inhibition of VEGFR3 phosphorylation at tyr1230 residue in human MCF7 cells at 8 uM incubated for 2 days by Western blot analysis. It is filed as cell-based. The note with it: time 2.0 day.
Test [10] deals with T1, Vascular endothelial growth factor receptor 1. As to the kind of experiment: Inhibition of VEGFR1 phosphorylation at tyr1333 residue in VEGF165-treated HUVEC cells at 8 uM incubated for 2 days by Western blot analysis. It is filed as cell-based. As to conditions: time 2.0 day.
Test [11] concerns the target T2, Vascular endothelial growth factor receptor 3. The test is described as follows: Inhibition of VEGFR3 phosphorylation at tyr1230 residue in VEGF165-treated HUVEC cells at 8 uM incubated for 2 days by Western blot analysis. Type of test: cell-based. As to conditions: time 2.0 day.

Activity calls are given as the source filed them. The calls are words filed in the database; no cut-off is given here.

One may read the inhibition as the relative decrease from the control value, in per cent. For `Cc1ccc(Nc2nccc(N(C)c3ccc4c(C)n(C)nc4c3)n2)cc1-c1nc2c(C(N)=O)cccc2[nH]1`, the inhibition is 99% in test [1]; 90% in test [2]; 100% in test [3]; 87% in test [4]; 85% in test [5]. Further, the inhibition result in test [6], in [7], in test [8], in test [9], in test [10] and in [11] was “Active” in each case.

The values above are taken from ChEMBL document CHEMBL5321287, “Discovery, Synthesis, and Evaluation of Novel Dual Inhibitors of a Vascular Endothelial Growth Factor Receptor and Poly(ADP-Ribose) Polymerase for BRCA Wild-Type Breast Cancer Therapy” (J Med Chem, 2023).
